The entries are a selection whose mix differs from that of the whole data set. Activity calls are given as the source filed them. No stated cut-off is given here; in the data, active means inhibition above about 50%; inactive means the rest.

By UniProt entry, the sequences of proteins in these tests, tags left out.
UniProt P30305, whole entry: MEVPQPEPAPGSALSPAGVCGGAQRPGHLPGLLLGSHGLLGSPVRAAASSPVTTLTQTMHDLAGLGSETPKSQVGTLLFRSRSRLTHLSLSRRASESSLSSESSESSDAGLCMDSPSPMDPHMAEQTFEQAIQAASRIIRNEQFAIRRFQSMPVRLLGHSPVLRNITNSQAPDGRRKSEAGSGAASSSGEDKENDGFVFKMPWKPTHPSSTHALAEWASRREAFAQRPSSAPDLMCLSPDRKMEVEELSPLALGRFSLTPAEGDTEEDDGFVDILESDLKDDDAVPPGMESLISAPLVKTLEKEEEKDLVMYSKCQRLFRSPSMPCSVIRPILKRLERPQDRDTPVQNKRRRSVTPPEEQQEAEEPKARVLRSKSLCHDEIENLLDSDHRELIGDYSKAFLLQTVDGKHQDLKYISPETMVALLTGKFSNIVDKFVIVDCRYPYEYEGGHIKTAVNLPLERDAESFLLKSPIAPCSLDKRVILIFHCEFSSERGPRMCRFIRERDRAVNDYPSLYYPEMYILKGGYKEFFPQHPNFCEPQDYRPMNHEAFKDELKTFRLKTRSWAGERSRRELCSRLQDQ

The test deals with M-phase inducer phosphatase 2 (Homo sapiens) (UniProt P30305). The experiment in a line: human Cdc25B tyrosine phosphatase blockers – biochemical, OMFP fluorescence, catalytic domain, primary screen (AID 368). As to conditions: recombinant Cdc25B, OMFP fluorescence Ex485/Em525; active compounds read high;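 compounds tested at 10 µM final in the well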.
As for `CN(C)CCOC(=O)C(O)(c1ccccc1)C1CCCCC1` (stereo not drawn), the inhibition is inactive: -4.85%.

For `CCOP(C)(=S)SCC(=O)NC(C)(CC)C(=O)O` (stereo not drawn), the inhibition was inactive: -4.79%.

With `Cc1ccccc1NP(C)(=O)Nc1ccccc1C`, the inhibition was inactive: -13.3%.

As for `CP(=O)(Nc1ccc2c(c1)OCCO2)Oc1ccccc1` (stereo not drawn), the inhibition was inactive: -12.4%.

As to `CP(=O)(Nc1ccccc1F)Oc1ccccc1` (stereo not drawn), the inhibition is inactive: -5.08%.

For `COc1ccccc1OP(C)(=O)Nc1ccc(C)c(C)c1` (stereo not drawn), the inhibition was inactive: 1.83%.

With `Cc1nc2ccc3ccccc3c2o1.O=[N+]([O-])c1cc([N+](=O)[O-])c(O)c([N+](=O)[O-])c1`, the inhibition was inactive: -1.83%.

With `CP(=O)(Nc1ccccn1)Oc1ccccc1` (stereo not drawn), the inhibition is inactive: -0.711%.

As to `COc1ccccc1OP(C)(=O)Nc1c(C)n(C)n(-c2ccccc2)c1=O` (stereo not drawn), the inhibition is inactive: -9.74%.

With `CP(=O)(Oc1ccccc1)N1CCOC1=O` (stereo not drawn), the inhibition is inactive: -7.95%.

For `CCN(CC)CC(O)COC(=O)C(O)(c1ccccc1)C1CCCCC1` (stereo not drawn), the inhibition was inactive: 9.07%.

Consider `CP(=S)(Nn1cnnc1)Oc1ccccc1` (stereo not drawn), for which the inhibition is inactive: -2.64%.

For `CP(=O)(NC(=O)Nc1ccccc1)Oc1ccccc1` (stereo not drawn), the inhibition is inactive: -10.6%.

On to `CCOP(C)(=S)SCC(=O)NC(C)C(=O)O` (stereo not drawn), for which the inhibition was inactive: -12.5%.

Take `COc1ccccc1OP(C)(=O)Nc1ccc(C)cc1` (stereo not drawn): the inhibition is inactive: 0.333%.

Regarding `Cc1ccc(NP(C)(=O)Oc2ccccc2)c(C)c1` (stereo not drawn), the inhibition is inactive: -7.26%.

As for `Cc1ccc(C)c(NP(C)(=O)Oc2ccccc2)c1` (stereo not drawn), the inhibition was inactive: 2.21%.

In the case of `Cc1nc2ccc3ccccc3c2s1.O=[N+]([O-])c1cc([N+](=O)[O-])c(O)c([N+](=O)[O-])c1`, the inhibition was inactive: 5.19%.

For orientation: inhibition means the relative decrease from the control value, in per cent.

For the origin of these results see PubChem BioAssay AID368 (University of Pittsburgh Molecular Library Screening Center, 2006).
